# In PubChem BioAssay AID720707 (National Center for Advancing Translational Sciences (NCATS), 2013):
# Protein sequences, listed by entry. Tags and fused reporters are not part of them.
# UniProt O95398, whole entry: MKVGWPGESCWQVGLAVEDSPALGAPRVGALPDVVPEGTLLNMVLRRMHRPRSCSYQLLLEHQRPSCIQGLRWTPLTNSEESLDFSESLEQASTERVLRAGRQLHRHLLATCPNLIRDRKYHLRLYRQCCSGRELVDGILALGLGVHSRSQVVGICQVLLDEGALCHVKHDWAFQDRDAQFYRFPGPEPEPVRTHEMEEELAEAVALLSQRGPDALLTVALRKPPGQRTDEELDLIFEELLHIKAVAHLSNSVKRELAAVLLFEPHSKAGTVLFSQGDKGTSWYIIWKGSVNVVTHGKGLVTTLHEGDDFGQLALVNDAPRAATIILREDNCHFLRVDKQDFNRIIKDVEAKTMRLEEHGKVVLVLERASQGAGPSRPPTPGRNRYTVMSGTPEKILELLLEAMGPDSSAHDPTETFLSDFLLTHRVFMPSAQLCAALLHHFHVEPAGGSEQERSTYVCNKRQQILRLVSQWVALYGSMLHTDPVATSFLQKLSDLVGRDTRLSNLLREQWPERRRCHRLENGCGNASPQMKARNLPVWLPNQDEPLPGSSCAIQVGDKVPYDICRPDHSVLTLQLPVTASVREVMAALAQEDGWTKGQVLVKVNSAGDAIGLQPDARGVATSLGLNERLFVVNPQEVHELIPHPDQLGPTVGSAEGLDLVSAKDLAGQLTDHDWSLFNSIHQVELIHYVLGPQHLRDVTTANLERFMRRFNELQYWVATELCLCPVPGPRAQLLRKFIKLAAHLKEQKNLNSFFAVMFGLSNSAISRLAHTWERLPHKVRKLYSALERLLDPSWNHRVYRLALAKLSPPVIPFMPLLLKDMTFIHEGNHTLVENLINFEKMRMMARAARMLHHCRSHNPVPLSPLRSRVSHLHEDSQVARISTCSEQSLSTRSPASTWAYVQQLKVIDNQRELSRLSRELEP
# This is a selection; strong and weak results do not stand in their true shares. Activity calls are given as the source filed them. Calls come from the whole dose curve; as a rule, active = well fitted activation curve with a large enough effect; inconclusive = small, poorly fitted or top-dose-only effect; inactive = no such curve, though single readings can be large or run the other way.
# Target: Rap guanine nucleotide exchange factor 3 (Homo sapiens) (UniProt O95398)
# Assay: qHTS for Agonist of cAMP-regulated guanine nucleotide exchange factor 3 (EPAC1): primary screen; note: nearly all actives have a fitted effect of over 60% in size
# Settings: biochemical assay; at 154 µM (top of the series), 100% = response to 6.5 mM cAMP unless noted
# Procedure, shortened: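 Compounds were pinned as a concentration titration into mixtures of EPAC1 (100 nM), BODIPY-GDP-loaded Rap1B (250 nM) and GDP (50 uM). After 5 min at room temperature, fluorescence was followed for 30 min; activity was scaled to 6.5 mM cAMP.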
row,Structure (SMILES),activation
1,c1ccc(CN2CCC(Nc3ccccc3)CC2)cc1,inactive: 3.65%
2,CC(C)(C)n1nnnc1C(c1cccc2ccccc12)N1CCC(n2c(=O)[nH]c3ccccc32)CC1 (stereo not given),inactive: 9.76%
3,CCC(c1nnnn1C1CCCCC1)N1CCC(n2c(=O)[nH]c3ccccc32)CC1 (stereo not given),inactive: -4.79%
4,CC(=O)N(c1ccccc1)C1CCNCC1,inactive: 5.87%
5,COc1cccc(C(c2nnnn2C2CCCCC2)N2CCC(n3c(=O)[nH]c4ccccc43)CC2)c1OC (stereo not given),inactive: 2.71%
6,O=c1[nH]c2ccccc2n1C1CCN(C(c2ccnc3ccccc23)c2nnnn2C2CCCCC2)CC1 (stereo not given),inactive: 0.636%
7,COc1cc(OC)cc(C(=O)NCC2(N3CCCCC3)CCCCC2)c1,inactive: 7.39%
8,Cc1ccc(Nc2c([N+](=O)[O-])cc([N+](=O)[O-])cc2[N+](=O)[O-])cc1,inactive: -5.25%
9,Fc1ccccc1NC1CCN(Cc2ccccc2)CC1,inactive: -5.33%
10,Cc1ccc(C(=O)NCC2(N3CCCCC3)CCCCC2)o1,inactive: -11.3%
11,Cc1ccc(NC2(C#N)CCN(Cc3ccccc3)CC2)cc1,inactive: -4.95%
12,CC(C)(C)n1nnnc1C(c1ccnc2ccccc12)N1CCC(n2c(=O)[nH]c3ccccc32)CC1 (stereo not given),inactive: 7.03%
13,COc1ccc(C(c2nnnn2C2CCCCC2)N2CCC(n3c(=O)[nH]c4ccccc43)CC2)cc1 (stereo not given),inactive: -13.2%
14,CCN1CCC(Nc2cccc(F)c2)CC1,inactive: 2.56%
15,Cc1ccccc1NC1(C#N)CCN(Cc2ccccc2)CC1,inactive: 4.01%
16,Cn1c(=O)[nH]cc(N(CCCl)CCCl)c1=O,inactive: 1.3%
17,CN(C)c1ccc(C(=O)NCC2(N3CCCCC3)CCCCC2)cc1,inactive: 1.97%
18,O=C(NCC1(N2CCCCC2)CCCCC1)c1ccco1,inactive: -9.11%
19,CN1CCC(Nc2ccc(F)c(Cl)c2)CC1,inactive: 2.01%
20,CCOc1ncccc1C(=O)NCC1(N2CCOCC2)CCCCC1,inactive: 8.17%
21,NN(c1ccccc1)C1CCN(CCc2ccccc2)CC1,inactive: -5.97%
22,O=C(O)C1(Nc2ccccc2)CCN(Cc2ccccc2)CC1,inactive: 0.924%
23,CC(C)(C)OC(=O)N1CCC(Nc2ccccc2)CC1,inactive: 1.6%
24,CCCOc1ccc(C(=O)NCC2(N(C)C)CCCCC2)cc1,inactive: -4.86%
25,O=c1[nH]c2ccccc2n1C1CCN(C(c2cc3ccccc3o2)c2nnnn2C2CCCC2)CC1 (stereo not given),inactive: -2.53%
26,COc1cccc(C(=O)N(c2cc(C)cc(C)c2)C2CCN(C(=O)OC(C)(C)C)CC2)c1,inactive: -4.26%
27,COc1cc(OC)cc(C(=O)NCC2(N3CCOCC3)CCCCC2)c1,inactive: -2.11%
28,COc1cccc(C(c2nnnn2C2CCCC2)N2CCC(n3c(=O)[nH]c4ccccc43)CC2)c1OC (stereo not given),inactive: 0.527%
29,CCC(CO)(C(=O)OC1CN2CCC1CC2)c1ccccc1 (stereo not given),inactive: -1.54%
30,CN1CCC(Nc2ccc(Cl)cc2)CC1,inactive: 6.83%
